This is an account of results in US20240270859A1.

For assay [1], the target named is human TNFα (TNF-H5228 of Acro Biosystems) (human) (UniProt P01375). Briefly: cell-based or functional assay.
Assay [2] has as its target human OX40L protein (OX40L-his), Acro Biosystems Cat #OXL-H52Q8 (human) (UniProt P23510). The assay is described as follows: cell-based or functional assay.

In the case of bispecific antibody TNFαi-02C09 HC, the IC50 (nM), TNFα blockade assay (luminescence of NFκB-RE HEK293 cells) in assay [1] stood at 0.057 nM. In assay [1], bispecific antibody TNFαi-I3F07 HC yielded an IC50 (nM), TNFα blockade assay (luminescence of NFκB-RE HEK293 cells) of 0.054 nM. The substance further gave an IC50 (nM), OX40L blockade assay (luminescence of NFκB-luc2/OX40 Jurkat cells) in assay [2] of 0.8 nM. In assay [1], “reference anti-TNFα antibody Ref. TNFαi (VH and VL of Humira)” had an IC50 (nM), TNFα blockade assay (luminescence of NFκB-RE HEK293 cells) of 0.063 nM.
